# Membrane permeability of cyclic peptides

Source: CycPeptMPDB (Li et al. 2023), which took these values from Furukawa et al. 2016, doi:10.1021/acs.jmedchem.6b01246.

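The data file gives no further conditions (lipid, pH, time, direction or concentration), and values from different papers need not be comparable. Other peptides of the study may be missing here. Peptides that the database sets to -10, its floor, are left out.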

PAMPA is the parallel artificial membrane permeability assay, which has no cells and reads passive diffusion. Caco-2: transport across a human colon carcinoma cell monolayer. Permeability is given as log10 of P in cm/s; higher (less negative) is more permeable. Cells with "n/a" have no entry in this list.

compound,PAMPA (log10 cm/s),Caco-2 (log10 cm/s)
CCCC[C@@H]1NC(=O)[C@H](CC(C)C)N(C)C(=O)CN(CCc2cccnc2)C(=O)[C@H](CC(C)C)NC(=O)CN(Cc2ccc3c(c2)OCO3)C(=O)[C@H]2CCCN2C1=O,-5.30,n/a
CCCC[C@@H]1NC(=O)[C@H](CC(C)C)N(C)C(=O)CN(CCc2cccnc2)C(=O)[C@H](CC(C)C)NC(=O)CN(CC(C)C)C(=O)[C@H]2CCCN2C1=O,-5.29,n/a
CCCC[C@@H]1NC(=O)[C@H](CC(C)C)N(C)C(=O)CN(CCOC)C(=O)[C@H](C)NC(=O)CN(CC)C(=O)[C@H]2CCCN2C1=O,-7.13,n/a
CCCC[C@@H]1NC(=O)[C@H](CC(C)C)N(C)C(=O)CN(CC2CCCCC2)C(=O)[C@H](Cc2ccccc2)NC(=O)CN(Cc2ccc(Cl)cc2)C(=O)[C@H]2CCCN2C1=O,-8.61,n/a
CCCCCN1CC(=O)N(C)[C@@H](CC(C)C)C(=O)N[C@@H](CCCC)C(=O)N2CCC[C@@H]2C(=O)N(Cc2ccc(Cl)cc2)CC(=O)N[C@@H](CC(C)C)C1=O,-7.39,n/a
CCCC[C@@H]1NC(=O)[C@H](CC(C)C)N(C)C(=O)CN(CCCc2cnn(C)c2)C(=O)[C@H](CC(C)C)NC(=O)CN(Cc2cc(CC(C)C)on2)C(=O)[C@H]2CCCN2C1=O,-5.33,n/a
CCCC[C@@H]1NC(=O)[C@H](CC(C)C)N(C)C(=O)CN(CCCc2cnn(C)c2)C(=O)[C@H](Cc2ccccc2)NC(=O)CN(CCC)C(=O)[C@H]2CCCN2C1=O,-5.43,-5.89
CCCC[C@@H]1NC(=O)[C@H](CC(C)C)N(C)C(=O)CN(CC2CCCCC2)C(=O)[C@H](CC(C)C)NC(=O)CN(CCCOC(C)C)C(=O)[C@H]2CCCN2C1=O,-5.76,n/a
CCCC[C@@H]1NC(=O)[C@H](CC(C)C)N(C)C(=O)CN(CC2CCOCC2)C(=O)[C@H](C)NC(=O)CN(CCC)C(=O)[C@H]2CCCN2C1=O,-6.69,n/a
CCCC[C@@H]1NC(=O)[C@H](CC(C)C)N(C)C(=O)CN(CCOC)C(=O)[C@H](CC(C)C)NC(=O)CN(CC(C)C)C(=O)[C@H]2CCCN2C1=O,-5.01,n/a
CCCC[C@@H]1NC(=O)[C@H](CC(C)C)N(C)C(=O)CN(CCCN2CCCC2=O)C(=O)[C@H](Cc2ccccc2)NC(=O)CN(CCCCc2ccccc2)C(=O)[C@H]2CCCN2C1=O,-6.12,n/a
CCCC[C@@H]1NC(=O)[C@H](CC(C)C)N(C)C(=O)CN(Cc2ccccc2)C(=O)[C@H](Cc2ccc3ccccc3c2)NC(=O)CN(Cc2cc(CC(C)C)on2)C(=O)[C@H]2CCCN2C1=O,-7.88,n/a
CCCC[C@@H]1NC(=O)[C@H](CC(C)C)N(C)C(=O)CN(CCCN2CCCC2=O)C(=O)[C@H](C)NC(=O)CN(Cc2ccc3c(c2)OCO3)C(=O)[C@H]2CCCN2C1=O,-7.04,n/a
CCCC[C@@H]1NC(=O)[C@H](CC(C)C)N(C)C(=O)CN(CCCN2CCCC2=O)C(=O)[C@H](CC(C)C)NC(=O)CN(CC(C)C)C(=O)[C@H]2CCCN2C1=O,-6.27,n/a
CCCC[C@@H]1NC(=O)[C@H](CC(C)C)N(C)C(=O)CN(CC2CCCCC2)C(=O)[C@H](C)NC(=O)CN(CCN2CCOCC2)C(=O)[C@H]2CCCN2C1=O,-5.92,n/a

A selection of 2 entries from above:

compound,PAMPA (log10 cm/s),Caco-2 (log10 cm/s)
CCCC[C@@H]1NC(=O)[C@H](CC(C)C)N(C)C(=O)CN(CC2CCCCC2)C(=O)[C@H](C)NC(=O)CN(CCN2CCOCC2)C(=O)[C@H]2CCCN2C1=O,-5.92,n/a
CCCC[C@@H]1NC(=O)[C@H](CC(C)C)N(C)C(=O)CN(CCCN2CCCC2=O)C(=O)[C@H](CC(C)C)NC(=O)CN(CC(C)C)C(=O)[C@H]2CCCN2C1=O,-6.27,n/a